Measurements taken from PubChem BioAssay (NCI).
This is a selection; strong and weak results do not stand in their true shares.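 Each cell line was grown in a 96-well plate and treated with one concentration of compound for 48 hours. Values below 10 were considered active.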 Activity calls are given as the source filed them.

Assays:
Assay in all cases: NCI-60 one-dose screen, 48 h (100 = growth as untreated, 0 = no growth, -100 = all killed)
Details in all cases: 10 µM unless noted
[1] = tested on: NCI-H23 lung
[2] = tested on: NCI-H226 lung
[3] = tested on: NCI-H322M lung
[4] = tested on: HOP-62 NSCLC
[5] = tested on: NCI-H460 lung
[6] = tested on: NCI-H522 lung
[7] = tested on: A549/ATCC NSCLC
[8] = tested on: 786-0 renal
[9] = tested on: COLO 205 colon
[10] = tested on: DU-145 prostate
[11] = tested on: K-562 leukemia
[12] = tested on: MALME-3M melanoma
[13] = tested on: MDA-MB-231 breast
[14] = tested on: RXF 393 renal
[15] = tested on: SF-268 CNS
[16] = tested on: SF-295 CNS
[17] = tested on: SF-539 CNS
[18] = tested on: UACC-257 melanoma
[19] = tested on: M14 melanoma

Measured: growth

ClP1(Cl)=NP(Cl)(Cl)=NP(c2ccccc2)(c2ccccc2)=N1
inactive: [1] 98.3% | [2] 106% | [3] 81.8% | [4] 84.5% | [5] 103% | [6] 61.6% | [7] 88.5% | [8] 94.1% | [9] 92.2% | [10] 110% | [11] 92.6% | [12] 109% | [13] 116% | [14] 109% | [15] 108% | [16] 101% | [17] 102% | [18] 91.7% | [19] 91.5%

COC(=O)C(=[N+]=[N-])C(=O)c1cc([N+](=O)[O-])cc([N+](=O)[O-])c1
inactive: [1] 114% | [2] 109% | [3] 113% | [4] 106% | [5] 105% | [6] 124% | [7] 112% | [8] 96.8% | [9] 107% | [10] 107% | [12] 113% | [14] 108% | [15] 106% | [16] 91.7% | [17] 110% | [18] 105% | [19] 100%

COc1cccc(OC)c1N(CCCl)CCCl
inactive: [1] 99% | [2] 104% | [3] 93.3% | [4] 96.9% | [5] 110% | [6] 86.2% | [7] 102% | [8] 93.2% | [9] 97.7% | [10] 102% | [11] 97.2% | [12] 90.4% | [13] 111% | [14] 107% | [15] 96.8% | [16] 98.8% | [17] 95% | [18] 115% | [19] 93.8%

CCSC(O)C(Cl)(Cl)Cl (configuration not stated)
inactive: [1] 102% | [2] 92.7% | [3] 93.6% | [4] 101% | [5] 105% | [6] 96.5% | [7] 100% | [8] 103% | [9] 116% | [10] 111% | [11] 104% | [12] 90.1% | [13] 114% | [14] 88.6% | [15] 106% | [16] 109% | [17] 110% | [18] 94.5% | [19] 101%

Cc1ccccc1OP(=O)(Cl)Oc1ccccc1C
inactive: [1] 106% | [2] 96% | [3] 103% | [4] 99% | [5] 106% | [6] 94% | [7] 103% | [8] 96.7% | [9] 106% | [10] 136% | [11] 102% | [12] 91.8% | [13] 105% | [14] 105% | [15] 114% | [16] 110% | [17] 100% | [18] 105% | [19] 99.4%

CCN(CCCl)c1ccc(CCC(=O)O)cc1
inactive: [1] 105% | [2] 106% | [3] 81.9% | [4] 93.1% | [5] 101% | [6] 71.1% | [7] 83.6% | [8] 104% | [9] 98% | [10] 107% | [11] 90.1% | [12] 98.3% | [13] 112% | [14] 110% | [15] 102% | [16] 100% | [17] 106% | [18] 88.7% | [19] 98.1%

CCOP(=O)(Nc1ccc(C)cn1)OCC
inactive: [1] 94.2% | [2] 122% | [3] 120% | [4] 106% | [5] 102% | [6] 97.4% | [7] 93.1% | [8] 103% | [9] 115% | [10] 109% | [11] 104% | [12] 130% | [13] 148% | [14] 101% | [15] 107% | [16] 112% | [17] 101% | [18] 92% | [19] 105%

ClCCN1CCNCC1
inactive: [1] 104% | [2] 113% | [3] 113% | [4] 113% | [5] 106% | [6] 95.5% | [7] 99.9% | [8] 102% | [9] 106% | [10] 117% | [11] 102% | [12] 111% | [13] 101% | [14] 102% | [15] 105% | [16] 92.6% | [17] 99.8% | [18] 98.4% | [19] 98.8%

O=[As](O)(c1cccs1)c1cccs1
inactive: [1] 96.8% | [2] 110% | [3] 92.7% | [4] 87.3% | [5] 104% | [6] 81.3% | [7] 96.4% | [8] 88.6% | [9] 116% | [10] 119% | [11] 113% | [12] 115% | [13] 116% | [14] 119% | [15] 112% | [16] 114% | [17] 101% | [18] 105% | [19] 97.7%

CC(C)=N/N=C(\N)N[N+](=O)[O-]
inactive: [1] 95.2% | [2] 102% | [3] 120% | [4] 114% | [5] 110% | [6] 97.7% | [7] 96% | [8] 113% | [9] 109% | [10] 109% | [11] 111% | [12] 105% | [13] 113% | [14] 106% | [15] 100% | [16] 106% | [17] 113% | [18] 101% | [19] 111%

Fc1cccc(CNCCCl)c1
inactive: [1] 104% | [2] 101% | [3] 135% | [4] 103% | [5] 116% | [6] 106% | [7] 110% | [8] 111% | [9] 115% | [10] 113% | [11] 112% | [12] 120% | [13] 131% | [15] 104% | [16] 109% | [17] 112% | [18] 106% | [19] 111%

CCN(CCCl)C(Cc1ccccc1)c1ccccc1 (configuration not stated)
inactive: [1] 100% | [2] 105% | [3] 84.8% | [4] 95.6% | [5] 105% | [6] 74.4% | [7] 83.1% | [8] 101% | [9] 101% | [10] 109% | [11] 87.9% | [12] 103% | [13] 112% | [14] 111% | [15] 104% | [16] 101% | [17] 111% | [18] 86.3% | [19] 93.9%

Cc1ccc(NCCCl)c2c(=O)c3ccccc3sc12
inactive: [1] 85.8% | [2] 95.6% | [3] 83.5% | [4] 119% | [5] 101% | [6] 100% | [7] 102% | [8] 103% | [9] 114% | [10] 104% | [11] 116% | [12] 104% | [13] 103% | [14] 90.1% | [15] 102% | [16] 98% | [17] 102% | [18] 96.9% | [19] 108%

CCCOP(=S)(Nc1nc(N)cc(=O)[nH]1)OCCC
inactive: [1] 99.4% | [2] 93.3% | [3] 102% | [4] 98.8% | [5] 108% | [6] 81.3% | [7] 106% | [8] 93.7% | [9] 116% | [10] 103% | [11] 101% | [12] 87.2% | [13] 99.7% | [14] 95.8% | [15] 98.5% | [16] 98.9% | [17] 95.3% | [18] 78.6% | [19] 97.8%

O=[N+]([O-])c1ccc(SSc2ccc([N+](=O)[O-])cc2[N+](=O)[O-])c([N+](=O)[O-])c1
inactive: [1] 95% | [2] 95.7% | [3] 99.7% | [4] 95.3% | [5] 103% | [6] 93.1% | [7] 99.6% | [8] 102% | [9] 110% | [10] 110% | [11] 24% | [13] 88.1% | [15] 103% | [16] 103% | [18] 95.7% | [19] 97.8%

CCOP(=O)(CCCBr)OCC
inactive: [1] 108% | [2] 93.5% | [3] 99.4% | [4] 102% | [5] 107% | [6] 97.5% | [7] 96.8% | [8] 106% | [9] 120% | [10] 115% | [11] 107% | [12] 109% | [13] 122% | [14] 105% | [15] 114% | [17] 102% | [18] 102% | [19] 115%
